Apparent affinities of Ab-14 variants for a coronavirus HR2 peptide

Data: MIT Lincoln Laboratory AlphaSeq set, Engelhart et al. 2022, doi:10.1038/s41597-022-01779-4, as distributed in FLAb.

All variants were tested on one target, the spike HR2 peptide PDVDLGDISGINAS (SARS-CoV-2).

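The starting antibody came from a phage panning campaign against this peptide. AAYL50 was designed without a model: most single CDR substitutions and a random sample of double and triple ones. The assay is AlphaSeq: two haploid yeast populations carry antibody and antigen on their surface. Pairs that bind mate more often; barcode pairs of the diploids are counted by sequencing. Read counts were normalised to the haploid input and turned into Kd by a linear fit to BCL2-family pairs of known affinity, for each replicate. Each pool was mated in three replicate cultures.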

Parent: Ab-14, a human scFv built as VH, the linker GGGGSGGGGSGGGGS, VL. Only the CDRs of the light chain vary.
VH: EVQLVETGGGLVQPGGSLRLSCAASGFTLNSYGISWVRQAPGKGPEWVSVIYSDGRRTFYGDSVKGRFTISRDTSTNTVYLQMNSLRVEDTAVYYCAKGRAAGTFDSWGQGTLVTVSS
VL: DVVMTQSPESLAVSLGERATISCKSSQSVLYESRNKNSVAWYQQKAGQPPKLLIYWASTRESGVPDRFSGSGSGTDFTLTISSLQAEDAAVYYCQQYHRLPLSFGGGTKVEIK

Positions count from residue 1 of the parent VL; Q27N puts N in place of Q. Numbers give log10(Kd / nM), so 0 is 1 nM and 3 is 1 µM. Smaller is tighter. "ND" marks a missing value. The strain was present, yet no cells mated with the target were sequenced in that replicate, which points to weak or no binding. For reference, the parent read 0.65 as the reference entry and 1.68 as a member of this library. Empty control strains, which show no peptide, gave a signal in 18% of pairings with library AAYL50; the median was 4.19 and 95% of these signals were weaker than 2.99. No background was subtracted.

{"changes": "Q27N R60C", "log10 Kd, replicates": "4.40 2.90 3.41"}
{"changes": "S33H S62K H98P", "log10 Kd, replicates": "3.53 3.18 3.53"}
{"changes": "K24W E32K P101T", "log10 Kd, replicates": "2.59 3.69 2.06"}
{"changes": "P101W S103F", "log10 Kd, replicates": "1.90 2.78 1.87"}
{"changes": "W56L A57K L100T", "log10 Kd, replicates": "3.23 2.29 2.85"}
{"changes": "K24I E61M R99N", "log10 Kd, replicates": "ND 1.35 1.71"}
{"changes": "W56A S62A", "log10 Kd, replicates": "-0.11 0.27 0.03"}
{"changes": "S25C S33G A57L", "log10 Kd, replicates": "1.54 1.72 1.61"}
{"changes": "S26N V39T P101I", "log10 Kd, replicates": "ND 2.95 ND"}
{"changes": "N35W V39D E61M", "log10 Kd, replicates": "ND ND ND"}
{"changes": "S25H S62N", "log10 Kd, replicates": "1.23 1.29 1.09"}
{"changes": "E32M L100R L102R", "log10 Kd, replicates": "2.90 2.79 2.84"}
{"changes": "A57R Q95D Y97N", "log10 Kd, replicates": "ND ND ND"}
{"changes": "S25H P101C", "log10 Kd, replicates": "2.19 2.07 2.62"}
{"changes": "S28Y S62L L100H", "log10 Kd, replicates": "ND 3.71 ND"}
{"changes": "S26C N35I T59P", "log10 Kd, replicates": "3.05 ND ND"}
{"changes": "S33Y K36A S38N", "log10 Kd, replicates": "1.06 0.35 0.82"}
{"changes": "A40Q W56S Q96H", "log10 Kd, replicates": "ND ND 5.11"}
{"changes": "S28V W56F R60N", "log10 Kd, replicates": "5.06 4.47 4.53"}
{"changes": "S26E R99H", "log10 Kd, replicates": "1.31 1.37 1.25"}
{"changes": "V29T N35H R99S", "log10 Kd, replicates": "1.25 1.48 1.54"}
{"changes": "N35K S62Q Q95S", "log10 Kd, replicates": "0.59 0.81 1.29"}
{"changes": "V29W A57N T59V", "log10 Kd, replicates": "2.43 3.32 2.57"}

Excerpt, the first 4 entries:

{"changes": "Q27N R60C", "log10 Kd, replicates": "4.40 2.90 3.41"}
{"changes": "S33H S62K H98P", "log10 Kd, replicates": "3.53 3.18 3.53"}
{"changes": "K24W E32K P101T", "log10 Kd, replicates": "2.59 3.69 2.06"}
{"changes": "P101W S103F", "log10 Kd, replicates": "1.90 2.78 1.87"}